Binding of CDR-mutated scFvs to a peptide of the spike HR2 region

The measurements come from Li et al. 2023 (doi:10.1038/s41467-023-39022-2) through the FLAb antibody collection.

Target peptide (SARS-CoV-2 spike, HR2 region): PDVDLGDISGINAS

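Phage display of a naive human antibody library on the peptide gave the parent. These sequences belong to a second round, designed from the earlier measurements on random variants of the parent. Their group label is 14L_GP_HC (GP: Gaussian process model; HC: hill climbing; a sequence that several methods proposed may carry one label only). The scFvs were displayed on barcoded MATa yeast, the peptide on MATalpha yeast. The frequency of each diploid, read from paired DNA barcodes, reflects how well the two displayed proteins bind. Each replicate has its own calibration line, from reference interactions of the BCL2 family. Mating was done six times.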

Ab-14 is the parent antibody, in scFv form: VH, then a 15-residue (Gly4Ser)3 linker, then VL. The heavy chain is unchanged in all variants.
VH: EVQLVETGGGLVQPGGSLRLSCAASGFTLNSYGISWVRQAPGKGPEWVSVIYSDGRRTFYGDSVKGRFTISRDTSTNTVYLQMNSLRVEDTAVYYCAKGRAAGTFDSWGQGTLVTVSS
VL: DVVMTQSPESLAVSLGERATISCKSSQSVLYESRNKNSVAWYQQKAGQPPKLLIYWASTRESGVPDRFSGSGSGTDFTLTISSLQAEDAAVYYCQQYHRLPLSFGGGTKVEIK

Each variant is given by its three light chain CDRs, as the data file delimits them; those of the parent are KSSQSVLYESRNKNSVA, WASTRES, QQYHRLPLS. Numbers give log10(Kd / nM), so 0 is 1 nM and 3 is 1 µM. Smaller is tighter. "nd" means that the variant was in the library but no mating with the target was seen in that replicate; the authors take this as a sign of poor binding, and no number exists. Values of this round are not directly comparable with the first-round values of the same sequences. Nonspecific signal, from three strains lacking the peptide, appeared in 4% of pairings of all light chain designs, centred on 2.64 (5% of these signals below 1.59); values are not corrected for it. Also given: how often the same scFv was detected with the empty control strains. Of ten entries with the parent sequence, four were seen in most replicates (averages 0.34 to 2.37), three in one and three in none, so single entries are noisy. The authors' rule: three or more of the six replicates give a measured affinity, fewer mean a poor binder.

For KSSISLLYESRMKNSVA, EASTRES, QQYHRLPLS, the assay gave 0.45, 0.91, 0.80, 0.21, 0.66, 0.79 (controls 1 of 18).
For KFSQEKLYESRNKNSVA, SASTRES, QQYHRLPLS, the assay gave 0.01, 0.12, -0.26, -0.27, -0.10, 0.02 (controls 1 of 18).
For KSSQSFLYESRNFNSVA, DASTRES, QQYHRLPLS, the assay gave -0.04, 0.08, -0.26, -0.43, -0.53, -0.12 (controls 1 of 18).
For HSSPSKLYESRNKNSVA, NASTRES, QQYHRLPLS, the assay gave 0.56, 0.57, 0.64, 0.43, 0.52, 0.58 (controls 5 of 18).
For KFSQSVLYESRTPNSVA, NASTRES, QQYHRLPLS, the assay gave -0.28, -0.24, -0.88, -0.56, -0.61, -0.50 (controls 0 of 18).
For KFSQSVLYESRTSNPVA, NASTRES, QQYHRLPLS, the assay gave 0.36, 0.34, 0.25, 0.06, 0.19, 0.44 (controls 3 of 18).
For KMSQSVLGEQRNKNSVA, DASTRES, QQYHRLPLS, the assay gave -0.20, -0.27, -0.53, -0.28, -0.30, -0.11 (controls 0 of 18).
For KSSQSYGYESRNKNSVA, GASTRES, QQYHRLPLS, the assay gave -0.27, 0.00, 0.11, 0.02, -0.06, -0.27 (controls 0 of 18).
For KVSQSVLYESGTKASVA, NASHRES, QQYHRLPLS, the assay gave 0.51, 0.20, 0.15, 0.00, 0.39, 0.35 (controls 0 of 18).
For KLVNSTLYESRQKNSVA, EASTRES, QQYHRLPLS, the assay gave 0.48, 0.42, 0.32, 0.23, 0.50, 0.44 (controls 1 of 18).
For KVSQSVLYESGTKNSVA, DASSRES, QQYHRLPLS, the assay gave -0.03, -0.01, -0.20, -0.20, 0.00, 0.07 (controls 0 of 18).
For KVSQSVLYESGTKNSVA, NASLRES, QQYHRLPLS, the assay gave 0.59, 0.36, 0.65, 0.48, 0.34, 0.66 (controls 0 of 18).
For KWSQSVKMESRNKNSVA, DASTRES, QQYHRLPLS, the assay gave 0.19, 0.14, 0.03, 0.06, -0.08, 0.19 (controls 2 of 18).
For KSQQSWLYESRNKNNVA, HASTRED, QQYHRLPLS, the assay gave 0.28, -0.28, -0.02, -0.37, -0.38, 0.00 (controls 0 of 18).
For KVSQSWLYESRNKNSVA, GASTREV, QQYHRLPLS, the assay gave 0.19, 0.01, 0.15, -0.14, -0.11, 0.28 (controls 2 of 18).
For IADQSWLYESRNKNSVA, GASTRES, QQYHRLPLI, the assay gave 0.28, 0.53, 0.68, 0.29, 0.80, 0.59 (controls 3 of 18).
For KVRGSTLYESRNKNSVA, WASTRES, QQYHRLPLS, the assay gave 0.52, 0.93, 0.32, 0.64, 0.94, 1.14 (controls 0 of 18).
For KSSQSWLYESRNFWSVA, NASTRES, QQYHRLPLS, the assay gave -0.10, -0.45, -0.27, -0.19, -0.43, -0.05 (controls 0 of 18).
For KSSQSQLYESVNKNSVA, HASTRES, QQYHRLPLS, the assay gave 0.36, 0.25, 0.29, 0.24, 0.42, 0.45 (controls 1 of 18).
For KCSQSVLFEPRNKNSVA, DASTRES, QQYHRLPLS, the assay gave 1.16, 0.57, 0.33, 0.70, 0.73, 0.33 (controls 0 of 18).
For KLSQSWLYESRNKNSVA, GASLRES, QQYHRLPLS, the assay gave 0.08, -0.22, -0.26, -0.20, 0.04, -0.02 (controls 1 of 18).
For KSSISYLYESRCKNSVA, EASTREQ, QQYHRLPLS, the assay gave 1.16, 1.11, 0.50, 0.85, 0.83, 0.74 (controls 0 of 18).
For KLQQQTLYETRNKNSVA, WASTREE, QQYHRLPLS, the assay gave 0.47, 0.56, 0.14, 0.54, 0.47, 0.64 (controls 0 of 18).
For KSSQSWLYESRNFNSVA, GASTRYS, QQYHRLPLS, the assay gave 0.60, 0.55, 0.42, 0.13, 0.33, 0.45 (controls 0 of 18).
For KISQSVLMESRNCNSVA, DASTRES, QQYVRLPLS, the assay gave 0.12, 0.18, -0.08, -0.14, -0.03, 0.19 (controls 0 of 18).
For KLMQSVLYESRNKNSVA, EASLRED, QQYHRLPLS, the assay gave 0.09, 0.14, 0.26, -0.01, 0.09, 0.18 (controls 1 of 18).
For KVSISYLLESRNKNSVA, EATTRES, QQYHRLPLS, the assay gave 0.96, 1.05, 0.77, 0.98, 0.93, 0.77 (controls 0 of 18).
For KMSQSWLYEDRVKNSVA, GASTRES, QQYHRLPLS, the assay gave 0.02, 0.09, -0.04, -0.28, 0.02, -0.02 (controls 2 of 18).
For KSSQSWLYESRNKNSVA, GASWRES, QQYHRLPLS, the assay gave 0.10, 0.40, 0.57, -0.06, 0.31, 0.34 (controls 0 of 18).
For KSSISGLYESRNKNSVA, EASTREE, QQYHRLPLS, the assay gave -0.02, -0.18, -0.47, -0.36, -0.24, -0.06 (controls 0 of 18).
For KLSISYLYESRNKNSVA, EASTRES, QQYHRLPLM, the assay gave 0.85, 0.29, 0.19, 0.43, 0.46, 0.25 (controls 3 of 18).
For KQSQSVLMESRNANSVA, DASTRES, QQYHRLPLS, the assay gave 0.09, 0.06, 0.02, -0.15, -0.23, 0.03 (controls 1 of 18).
For KVRQSTLYESRNKNSVA, TASTRES, QQYHRLPLS, the assay gave 1.19, 1.15, 2.14, 1.15, 1.00, 1.15 (controls 0 of 18).
For KSSQSVLYESLNKNSVA, EASQRES, QQYHRLPLS, the assay gave 0.59, 0.55, 0.58, 0.41, 0.74, 0.80 (controls 0 of 18).
For KQSQSVLYEQVNKNSVA, DASTRMS, QQYHRLPLS, the assay gave nd, nd, nd, nd, nd, nd (controls 0 of 18).
For KLAQSVLYESRNKNSVA, HASTRED, KQYHRLPLS, the assay gave 2.34, nd, nd, nd, nd, nd (controls 0 of 18).
For KLAQSTKYESRNQNSVA, YASTRES, QQYHRLPLS, the assay gave 0.42, 0.66, 0.44, 0.37, 0.27, 0.72 (controls 0 of 18).
For KSSISYLYESMNTNSVA, EASTRES, QQYHRLPLS, the assay gave 1.58, 1.91, 0.50, 1.53, 1.40, 0.48 (controls 0 of 18).
For KSSWSVLYESGNKNSVA, DASTRED, QQYHRLPLS, the assay gave 0.37, 0.25, 0.41, 0.19, 0.51, 0.43 (controls 0 of 18).
For KSSISELYESRNKNSVA, EASTREQ, QQYHRLPLS, the assay gave -0.18, -0.05, -0.19, -0.14, -0.32, 0.09 (controls 0 of 18).
For KQSQSDLYESRNKNAVA, DASTRES, QMYHWLPLS, the assay gave 1.13, 1.05, 1.98, 1.01, 2.48, 2.04 (controls 0 of 18).
For KLRMSTLYESRNKNSVA, QASTRES, QQYHRLPLS, the assay gave 0.21, 0.07, -0.03, -0.10, -0.13, -0.02 (controls 1 of 18).
For KVSISYLYESRNKNSVA, AASTRES, QQYHRLPLS, the assay gave 0.24, 0.09, -0.05, 0.24, 0.09, 0.35 (controls 1 of 18).